Consider 1 molecule from patent publication US6428816B1, “Carotenoid agent for inhibiting the conversion of epithelial cells to tumors” (Cognis Australia Pty., Ltd., priority 1992, dated 2002).

In the assay the test system is normal human melanocytes. The note with it: FIG. 2; immediately following 500 mJ/cm^2 UV-B (0.05 hr); 24 h pre-treatment with 1.0 microgram/ml. As for the experimental part: Human neonatal foreskins were placed in 0.25% trypsin at 4° C. overnight. Following this incubation, the tissue was scraped to recover the melanocytes. The melanocytes were cultured in MCDB 151 (Sigma) medium containing 2% fetal calf serum, 0.3% bovine pituitary extract (Clonetics Corp.), 10 nanograms/ml TPA, 2 mM CaCl2, 5 micrograms/ml insulin and 0.1 mM IBMX (Sigma).
Cells were harvested with 0.25% trypsin and counted on a Coulter Counter (Coulter Instruments). Viability was determined by trypan blue exclusion. DNA synthesis was measured by labelling with (methyl-^3H)-thymidine (2.5 mCi/ml, 20 Ci/mmol, DuPont-New England Nuclear) added to the medium during the last 4 hours of incubation. Melanocytes were harvested using a Ph.D. cell harvester (Cambridge Research Inc.). the amount of radioactivity incorporated was determined by liquid scintillation counting (LS5000TD. Beckman Instruments).
Normal human melanocytes were seeded into the appropriate vessel (6 well plate, 96 well plate, 75 cm or 175 cm flask) and allowed to grow to 50-60% confluency. […] The 0.05 hour time indicates cells were harvested within 3 minutes following UV-B exposure.

For `CC1=C(/C=C/C(C)=C/C=C/C(C)=C/C=C/C=C(C)/C=C/C=C(C)/C=C/C2=C(C)CCCC2(C)C)C(C)(C)CCC1` [beta-carotene], the “increase in cell viability with beta-carotene as compared to UV-B alone” value is given as around 20%.
